# Hit rate of the full screen: of about 2,300 compounds, about 1,200 (52%) were called active. The set was probably picked from earlier hits. Listed are the inconclusive results; actives and inactives stand elsewhere. The call rests on the fitted dose curve; in most records, active means well fitted inhibition curve with a large enough effect; inconclusive means small, poorly fitted or top-dose-only effect, or effect the other way; inactive means no such curve, though single readings can be large or run the other way.
# Assay: Confirmation screen for delayed death inhibitors of the malarial parasite plastid, 48 hour incubation; further: nearly all actives have a fitted effect of over 65% in size
# Settings: P. falciparum-infected erythrocytes, luciferase growth
# Potency means the concentration at half of the fitted maximal effect.
row,SMILES,Potency
1,Nc1ccccc1[As](=O)(O)c1ccccc1,inconclusive: 14.1 µM

# — PubChem BioAssay AID504850 (National Center for Advancing Translational Sciences (NCATS), 2011)
